Data as given in publication PMC10269814, “New Perspectives on Escherichia coli Signal Peptidase I Substrate Specificity: Investigating Why the TasA Cleavage Site Is Incompatible with LepB Cleavage” (Microbiology Spectrum, 2023).

Biological target: LepB Δ2-76 His-SUMO (Escherichia coli) (UniProt P00803)
Assay: SPR; LepB Δ2-76 His-SUMO amine-coupled (EDC/NHS) to a CDH chip, Pioneer FE; OneStep method with 75% of the loop; peptides flowed at 50 μM, 50 μL/min, 180 s dissociation; regeneration with Tris-EDTA; triplicate

MBP wt peptide
Kd: 8.01 µM
